According to BindingDB's records for doi:10.1021/jm101144f (Dana-Farber Cancer Institute, 2010):
pIC50: −log10 of the molar value.

Target: Serine/threonine-protein kinase mTOR (Mus musculus, UniProt Q9JLN9)

pIC50: < 6.52
Structure (SMILES): CN(C)CCn1c(=O)ccc2cnc3ccc(-c4cnc5ccccc5c4)cc3c21 [1-(2-(dimethylamino)ethyl)-9-(quinolin-3-yl)benzo[h][1,6]naphthyridin-2(1H)-one]
